Assay results from article PMC3953198 (Journal of medicinal chemistry, 2013).

Tested on: PC3 cells
Experiment: Retraction assay: cell retraction and rounding in PC3 cells
Format: cell-based, human
Conditions: Fc alone

C[C@H](CCC(=O)N[C@@H](Cc1c[nH]c2ccccc12)C(=O)O)[C@H]1CC[C@H]2[C@@H]3CC[C@@H]4C[C@H](O)CC[C@]4(C)[C@H]3CC[C@]12C [Compound 20]
effect on cell morphology in the absence of ephrin treatment: did not affect cell morphology
